## AlphaSeq binding of Ab-91 heavy chain variants to a spike HR2 peptide

Reference: Engelhart et al. 2022, doi:10.1038/s41597-022-01779-4. File: FLAb, binding data.

Binding partner: SARS-CoV-2 spike HR2 peptide, sequence PDVDLGDISGINAS.

The variants keep the light chain, the linker and the frameworks of Ab-91 (scFv order VL, three GGGGS repeats, VH).
VL: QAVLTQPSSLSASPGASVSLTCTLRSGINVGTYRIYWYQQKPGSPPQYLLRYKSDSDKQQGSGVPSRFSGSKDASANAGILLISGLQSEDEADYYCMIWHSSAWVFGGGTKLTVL
VH: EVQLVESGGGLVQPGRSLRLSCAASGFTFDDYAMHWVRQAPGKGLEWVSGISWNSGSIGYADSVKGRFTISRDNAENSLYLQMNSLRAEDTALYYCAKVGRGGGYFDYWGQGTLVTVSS

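Variants in AAYL51 differ from the parent at up to three CDR positions; double and triple changes were sampled at random. The assay is AlphaSeq: two haploid yeast populations carry antibody and antigen on their surface. Mating (16 h, 30 °C) was followed by selection of diploids and sequencing of their barcodes. The ratio of observed to expected reads was calibrated, replicate by replicate, on BCL2-family standards whose Kd was known from biolayer interferometry. Each pool was mated in three replicate cultures.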

Positions count from residue 1 of the parent VH; G56H puts H in place of G. Affinities are written as log10 Kd with Kd in nM; a lower number is a better binder. An entry "n.d." has no value in the source: the pair was not observed among the diploids in that replicate. This suggests poor binding but is not conclusive. Nonspecific signal, from three strains lacking the peptide, appeared in 21% of pairings of library AAYL51, centred on 4.54 (5% of these signals below 3.26); values are not corrected for it. The control count says in how many pairings with the empty strains this scFv gave a signal, with their mean in brackets. In this assay the parent's reference entry averaged 1.86; its copy inside this library read 0.88.

{"changes": "G56H/K65G/G104E", "log10 Kd, replicates": "3.85 / 5.01 / 4.90", "signal with controls": "2/9 (4.73)"}
{"changes": "S52V/G56V/Y108T", "log10 Kd, replicates": "4.96 / 5.10 / 6.06", "signal with controls": "8/9 (4.91)"}
{"changes": "D31L/G104E/Y105H", "log10 Kd, replicates": "1.79 / 1.99 / 1.63", "signal with controls": "6/9 (4.46)"}
{"changes": "A33P/V64N/G102E", "log10 Kd, replicates": "n.d. / n.d. / n.d.", "signal with controls": "0/9"}
{"changes": "I51Q/I58C/F106D", "log10 Kd, replicates": "n.d. / n.d. / n.d.", "signal with controls": "0/9"}
{"changes": "D31T/W53A", "log10 Kd, replicates": "3.52 / 3.50 / 5.09", "signal with controls": "1/9 (4.97)"}
{"changes": "F106H", "log10 Kd, replicates": "n.d. / n.d. / n.d.", "signal with controls": "0/9"}
{"changes": "D62A/S63V", "log10 Kd, replicates": "3.15 / 2.74 / 3.50", "signal with controls": "3/9 (5.06)"}
{"changes": "M34W/G50R/N54A", "log10 Kd, replicates": "4.85 / 4.48 / 4.76", "signal with controls": "4/9 (3.95)"}
{"changes": "S57N/Y108T", "log10 Kd, replicates": "n.d. / 6.39 / n.d.", "signal with controls": "5/9 (5.10)"}
{"changes": "D30W/S57H", "log10 Kd, replicates": "3.46 / 3.73 / 4.03", "signal with controls": "9/9 (5.35)"}
{"changes": "G50V/I51T/A61F", "log10 Kd, replicates": "n.d. / 3.66 / n.d.", "signal with controls": "0/9"}
{"changes": "D30A/W53F/D107T", "log10 Kd, replicates": "n.d. / n.d. / n.d.", "signal with controls": "0/9"}
{"changes": "A61L/S63K/Y105P", "log10 Kd, replicates": "n.d. / n.d. / n.d.", "signal with controls": "1/9 (3.16)"}
{"changes": "D31A/V99P/Y108T", "log10 Kd, replicates": "n.d. / n.d. / n.d.", "signal with controls": "0/9"}
{"changes": "S55Q/G103I/G104V", "log10 Kd, replicates": "n.d. / n.d. / n.d.", "signal with controls": "0/9"}
{"changes": "A33F/I51E/W53I", "log10 Kd, replicates": "4.87 / 4.71 / n.d.", "signal with controls": "3/9 (3.79)"}
{"changes": "F29Y/S57M/D62H", "log10 Kd, replicates": "4.61 / 5.28 / 4.35", "signal with controls": "6/9 (4.78)"}
{"changes": "D31V/G102S", "log10 Kd, replicates": "4.63 / n.d. / n.d.", "signal with controls": "3/9 (4.67)"}
{"changes": "F27W/F29M/S52V", "log10 Kd, replicates": "4.19 / 4.61 / 5.43", "signal with controls": "3/9 (4.67)"}
{"changes": "M34H/S55V/V99H", "log10 Kd, replicates": "n.d. / 4.52 / 4.75", "signal with controls": "0/9"}

The first 2 variants above that were never detected:

{"changes": "A33P/V64N/G102E", "log10 Kd, replicates": "n.d. / n.d. / n.d.", "signal with controls": "0/9"}
{"changes": "I51Q/I58C/F106D", "log10 Kd, replicates": "n.d. / n.d. / n.d.", "signal with controls": "0/9"}